Source: PubChem BioAssay
The list is not random: actives were taken first. Their share in the collection is about 4.2%.
MC4R antag cAMP – MC4R antagonists of cAMP signaling, primary screen, cell-based, TR-FRET, antagonist arm of biased-ligand search; MC4R-expressing cells, MTII-stimulated cAMP, LANCE TR-FRET; inhibition, % at 6.5 µM; actives 0.48% (n = 360,000);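 active = inhibition above its plate's cutoff, the mean of tested wells on that plate plus 3 SD, cut at about 29% in these data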;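 also: 0% = Melanotan II alone and 100% = Melanotan II plus saturating MCL0020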
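Assay system: U2OS cells stably expressing human melanocortin 4 receptor (MC4R) / Dosing: 6.5 µM / Timing: compound 30 min, challenge 1 h, detection 1 h / Measured by: Eu-cAMP/anti-cAMP TR-FRET, emission 671 nm / Replicates: singlicate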
Yeast UUG start – modulators of start codon recognition fidelity in yeast; S. cerevisiae UUG-firefly luciferase reporter, luminescence/redox ratio; AID 602363; 350,000 tested, 0.13% active; activity score, % at 18.7 µM;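 active = replicate mean at a twofold rise or more, about +100% in these data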;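 also: firefly luciferase made from a UUG start codon reports start codon fidelity; reporter light over untreated wells divided by growth signal over untreated wells; some hits fall short of that in this replicate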
NALP1 inh – NALP1 inflammasome inhibitors in reconstituted yeast, colorimetric, S. cerevisiae, triplicate retest | S. cerevisiae NALP1/ASC/caspase-1 growth, X-gal OD620, 72 h | actives 0.61% (n = 280,000) | inhibition, % at 10 µM; in the data active = inhibition mostly above about 24%, no sharp cut-off; inactive = mostly below about 32%
HDAC3 inhib – HDAC3 deacetylase inhibitors, primary screen, biochemical, fluorescence, cell-free homogeneous | Histone deacetylase 3 (Homo sapiens), O15379 | recombinant HDAC3, fluorogenic peptide/trypsin coupled | inhibition, % at 8.3 µM | actives 0.15% (n = 320,000) | AID 2718, 2010; in the data active = inhibition above about 26%, passing the limit was not always enough
MC4R ag barr – MC4R agonists recruiting beta-arrestin, primary screen, cell-based, luminescence, agonist arm of biased-ligand search; Melanocortin receptor 4 (Homo sapiens), P32245; U2OS MC4R beta-arrestin complementation; percent of melanotan II response, DMSO zero; activation, % at 8.9 µM; actives 0.98% (n = 360,000);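 active = activation above a per-plate cutoff, the mean activation of sample wells on that plate plus 3 SD, cut at about 8% in these data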
ALR H2O2 inh – inhibitors of human ALR sulfhydryl oxidase, primary screen, biochemical, H2O2 detection, HRP-luminol luminescence, single point. inhibition, % (concentration not given with the values). 290,000 compounds, 3.8% hits. purified ALR, DTT oxidation. AID 485317, 2010;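 active means mean and each replicate at 75% or more; inconclusive means only one of the two met; inactive means neither met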;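 further: stock transfer was 7.5 nL into about 7.5 µL; 0% = neutral wells and 100% = wells with inactivated enzyme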
MC4R barr conf – MC4R beta-arrestin agonists, retest, confirmation, cell-based, luminescence, U2OS | shares compounds with MC4R ag barr | U2OS MC4R beta-arrestin recruitment; scaled DMSO 0%, Melanotan II 100% | activation, % at 8.9 µM | actives 31% (n = 2,400);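 active = mean activation across replicates above the hit cutoff set in the earlier primary screen, cut at about 8% in these data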
MOR-DOR barr ag – agonists of MOR-DOR heterodimerization, counter-screen for MC4R biased agonist project, cell-based, luminescence; shares compounds with MC4R ag barr; U2OS PathHunter beta-arrestin, beta-gal luminescence; percent of deltorphin B response, DMSO zero; activation, % at 9.2 µM; actives 5.8% (n = 2,400);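 active = mean activation across replicates exceeds the hit threshold derived in the earlier primary screen, cut at about 18% in these data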;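 also: 100% = deltorphin B at 0.9 µM final and 0% = DMSO alone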
The depositor's hits bear a star.

By UniProt entry, the sequences of proteins in these tests, tags left out.
Melanocortin receptor 4 (Homo sapiens), P32245, UniProt P32245, whole entry, looked up: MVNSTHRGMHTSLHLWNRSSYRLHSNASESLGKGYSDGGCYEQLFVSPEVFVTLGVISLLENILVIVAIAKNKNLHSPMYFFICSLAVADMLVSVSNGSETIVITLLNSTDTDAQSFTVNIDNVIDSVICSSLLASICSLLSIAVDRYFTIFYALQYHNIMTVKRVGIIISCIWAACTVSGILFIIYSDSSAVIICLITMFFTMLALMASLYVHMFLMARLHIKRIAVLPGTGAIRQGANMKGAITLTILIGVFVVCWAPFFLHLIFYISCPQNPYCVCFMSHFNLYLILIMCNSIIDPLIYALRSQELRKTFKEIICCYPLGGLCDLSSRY

Screening NC(Cc1ccc(C(F)(F)F)cc1)c1csc(NC(=O)NCCc2ccccc2)n1 (stereo not drawn) returned MC4R antag cAMP 10, Yeast UUG start -12, MC4R ag barr 14*, MC4R barr conf 22* and MOR-DOR barr ag 18*.
`NC(Cc1ccc(C(F)(F)F)cc1)c1csc(Nc2ncccn2)n1` (stereo not drawn) gave MC4R antag cAMP 7, Yeast UUG start -21 and MC4R ag barr 1.
COc1cc(NC(=O)Nc2nc(C(N)Cc3ccc(C(F)(F)F)cc3)cs2)cc(OC)c1OC (stereo not drawn) was read as MC4R antag cAMP 10, Yeast UUG start 8, MC4R ag barr 20*, MC4R barr conf 21* and MOR-DOR barr ag 11.
NC(Cc1ccc(C(F)(F)F)cc1)c1csc(NC(=O)Nc2ccccc2Oc2ccccc2)n1 (stereo not drawn) was read as MC4R antag cAMP 16, Yeast UUG start -17 and MC4R ag barr 7.
`COc1ccccc1NC(=O)Nc1nc(C(N)Cc2ccc(C(F)(F)F)cc2)cs1` (stereo not drawn) gave MC4R antag cAMP -2, Yeast UUG start -21, MC4R ag barr 21*, MC4R barr conf 11* and MOR-DOR barr ag 14.
For COc1ccccc1NC(=O)N[C@H]1C=C[C@@H](CC(=O)NCc2ccc(Cl)c(Cl)c2)O[C@H]1CO the results were Yeast UUG start 30.
Cc1noc(C)c1S(=O)(=O)Nc1cccc2c1O[C@@H](CN(C)C(=O)Nc1ccc(F)cc1)[C@@H](C)CN([C@@H](C)CO)C2=O was read as Yeast UUG start 4.
`O=C(NCC[C@@H]1CC[C@@H](NS(=O)(=O)c2cccc(F)c2)[C@H](CO)O1)C1CCCCC1` gave Yeast UUG start 0.
For NC(Cc1ccc(Cl)cc1)c1csc(Nc2ccc(-c3ccccc3)nn2)n1 (stereo not drawn) the results were MC4R antag cAMP 10, Yeast UUG start -16, MC4R ag barr 15*, MC4R barr conf 33* and MOR-DOR barr ag 13.
CCc1cnc(Nc2nc(C(N)Cc3ccc(Cl)cc3)cs2)nc1 (stereo not drawn) was read as MC4R antag cAMP -6, Yeast UUG start -19 and MC4R ag barr 0.
Screening COc1ccc(-c2csc(NC(=O)COC(=O)c3ccco3)n2)cc1 returned MC4R antag cAMP 7, Yeast UUG start -12, NALP1 inh 25, HDAC3 inhib 7, MC4R ag barr 11*, ALR H2O2 inh -26, MC4R barr conf 4 and MOR-DOR barr ag 3.
For CC(=O)c1cc2c(cc1NC(=O)CN1CCN(c3cccc(C(F)(F)F)c3)CC1)OCO2 the results were MC4R antag cAMP 3, Yeast UUG start -10, NALP1 inh -59, HDAC3 inhib -15, MC4R ag barr 16*, ALR H2O2 inh -1, MC4R barr conf -2 and MOR-DOR barr ag 3.
C[C@H](O)C#Cc1ccc2c(c1)O[C@@H](CN(C)C(=O)C1CCC1)[C@@H](C)CN([C@@H](C)CO)S2(=O)=O was read as Yeast UUG start 9.
Screening CCc1ccc(NC(=O)COc2ccc(/C=C(/C#N)c3nc4ccccc4[nH]3)cc2OC)cc1 returned MC4R antag cAMP 1, Yeast UUG start -10, NALP1 inh 17, HDAC3 inhib -23, MC4R ag barr 69*, ALR H2O2 inh -9, MC4R barr conf 17* and MOR-DOR barr ag 23*.
`C[C@@H]1CN([C@H](C)CO)S(=O)(=O)c2ccc(C3=CCCCC3)cc2O[C@@H]1CN(C)C(=O)c1ccncc1` gave Yeast UUG start -6.
`Cc1c(C(=O)Nc2ccc(C(F)(F)F)cc2)sc2ncn(CC(=O)N3CCN(c4ccccn4)CC3)c(=O)c12` gave MC4R antag cAMP -5, Yeast UUG start -18, NALP1 inh -10, HDAC3 inhib 0, MC4R ag barr 14*, ALR H2O2 inh 0, MC4R barr conf 5 and MOR-DOR barr ag 9.
Cc1ccc(NC(=O)c2sc3ncn(CC(=O)N4CCN(c5ccccn5)CC4)c(=O)c3c2C)cc1 was read as MC4R antag cAMP -1, Yeast UUG start 3 and MC4R ag barr -1.
Screening Cc1ccc(-c2cc(C(=O)NCc3ccco3)no2)cc1 returned MC4R antag cAMP 16, Yeast UUG start -13, NALP1 inh 31, HDAC3 inhib 1, MC4R ag barr 1 and ALR H2O2 inh -3.
For O=C(NCc1ccco1)c1cc(-c2ccc3c(c2)OCO3)on1 the results were MC4R antag cAMP 4, Yeast UUG start -15, NALP1 inh 10, HDAC3 inhib -2, MC4R ag barr 12*, ALR H2O2 inh -10, MC4R barr conf 6 and MOR-DOR barr ag 5.
Screening COc1cc2nc(Nc3ccc(C)c(Cl)c3)nc(N)c2cc1OC returned MC4R antag cAMP 0, Yeast UUG start -19, NALP1 inh 3, HDAC3 inhib 1, MC4R ag barr 11*, ALR H2O2 inh -1, MC4R barr conf 18* and MOR-DOR barr ag 13.
Screening NNC(=O)c1ccc(OCC2CC(c3ccc(Cl)cc3)=NO2)cc1 (stereo not drawn) returned MC4R antag cAMP 10, Yeast UUG start 1, HDAC3 inhib 3, MC4R ag barr 12*, ALR H2O2 inh -15, MC4R barr conf 0 and MOR-DOR barr ag 5.
Screening C[C@H]1CN([C@@H](C)CO)S(=O)(=O)c2ccc(-c3cccnc3)cc2O[C@@H]1CN(C)C(=O)C1CCC1 returned Yeast UUG start -12.
For COC(=O)c1sc(NC(=O)c2ccoc2C)nc1C the results were MC4R antag cAMP 2, Yeast UUG start -11, NALP1 inh 22 and MC4R ag barr -4.
COC(=O)c1sc(NC(=O)/C=C/c2ccc(C)o2)nc1C was read as MC4R antag cAMP -1, NALP1 inh 30, HDAC3 inhib -6, MC4R ag barr 12*, ALR H2O2 inh 49, MC4R barr conf 4 and MOR-DOR barr ag 1.

Not a retest: an excerpt of the list.
For COC(=O)c1sc(NC(=O)c2ccoc2C)nc1C the results were MC4R antag cAMP 2, Yeast UUG start -11, NALP1 inh 22 and MC4R ag barr -4.
COC(=O)c1sc(NC(=O)/C=C/c2ccc(C)o2)nc1C was read as MC4R antag cAMP -1, NALP1 inh 30, HDAC3 inhib -6, MC4R ag barr 12*, ALR H2O2 inh 49, MC4R barr conf 4 and MOR-DOR barr ag 1.
